Results from patent US20060192819A1, “Recording apparatus” (Fuji Xerox Co., Ltd., priority 2005, published 2006).

Assay: Solubility of ionic liquid in 100 g of ink or treating solution
Type: physicochemical
Conditions: about 23° C., left 1 day
Experimental: Solubility (the amount of the ionic liquid that can be solved in 100 g of the ink) is defined by mixing the ink and the ionic liquid in predetermined amounts and leaving the resultant mixture for 1 day while keeping it at a temperature of about 23° C. The amount of ionic liquid that has separated from the ink 1 day after mixing is determined as the amount of ionic liquid exceeding the solubility of the ionic liquid in the ink.

1-ethyl-3-methylimidazolium bis(trifluoromethanesulfonyl)imide [Example 1-1]
Solubility (g) of ionic liquid in 100 g of ink (ink A): less than 5 g | Solubility (g) ionic liquid in 100 g of treating solution (treating solution A): less than 5 g
